Data: patent US7291673B2, “Conjugate addition reactions for the controlled delivery of pharmaceutically active compounds” (Eidgenossiche Technische Hochschule Zurich, priority 2000, dated 2007)

System: rats
Test: Ectopic (subcutaneous) bone formation in the rat
Format: in vivo
Settings: subcutaneous implant in rats, two weeks; 250 μg/ml of precursor solution
Method: Materials were made essentially according to Example 3, but under sterile conditions and with PEG-3500-3A, a molar ratio of acrylates: thiols of 1:1, and a molar ratio of GCGYGRGDSPG: acrylates of 1/12. At the time of gel formation, a recombinant human growth factor, BMP-2, which induces bone formation was added to the precursor solution at a concentration of 250 μg/ml of precursor solution. Precursor solution was added to hemostatic collagen sponges (Helistat; 8 mm diameter, approximately 3.5 mm height). Precursor solution was added until the sponges could not absorb more solution (approximately 160 μl). The gels were allowed to solidify in the sponges. Gels were briefly washed with PBS then kept minimally wet until implantation subcutaneously in rats. The implants were removed after two weeks, fixed, and hematoxylin and eosin stained.

B1: BMP-2: recombinant human growth factor which induces bone formation, delivered in PEG-3500-3A gel (protein, UniProt P12643 283-396, looked up)
Bone morphogenetic protein 2: QAKHKQRKRLKSSCKRHPLYVDFSDVGWNDWIVAPPGYHAFYCHGECPFPLADHLNSTNHAIVQTLVNSVNSKIPKACCVPTELSAISMLYLDENEKVVLKNYQDMVVEGCGCR
B1 was tested. Which bone formation did it give?
Its bone formation is “promoted bone formation”.
